Assay results reported in ChEMBL document CHEMBL4257577, “Pyridinium Oximes with Ortho-Positioned Chlorine Moiety Exhibit Improved Physicochemical Properties and Efficient Reactivation of Human Acetylcholinesterase Inhibited by Several Nerve Agents” (2018).

Sequences of proteins named here, by UniProt entry; tags and fusion partners are left off. A change or cut given only in a name is not applied to a line headed by its entry.
UniProt P22303: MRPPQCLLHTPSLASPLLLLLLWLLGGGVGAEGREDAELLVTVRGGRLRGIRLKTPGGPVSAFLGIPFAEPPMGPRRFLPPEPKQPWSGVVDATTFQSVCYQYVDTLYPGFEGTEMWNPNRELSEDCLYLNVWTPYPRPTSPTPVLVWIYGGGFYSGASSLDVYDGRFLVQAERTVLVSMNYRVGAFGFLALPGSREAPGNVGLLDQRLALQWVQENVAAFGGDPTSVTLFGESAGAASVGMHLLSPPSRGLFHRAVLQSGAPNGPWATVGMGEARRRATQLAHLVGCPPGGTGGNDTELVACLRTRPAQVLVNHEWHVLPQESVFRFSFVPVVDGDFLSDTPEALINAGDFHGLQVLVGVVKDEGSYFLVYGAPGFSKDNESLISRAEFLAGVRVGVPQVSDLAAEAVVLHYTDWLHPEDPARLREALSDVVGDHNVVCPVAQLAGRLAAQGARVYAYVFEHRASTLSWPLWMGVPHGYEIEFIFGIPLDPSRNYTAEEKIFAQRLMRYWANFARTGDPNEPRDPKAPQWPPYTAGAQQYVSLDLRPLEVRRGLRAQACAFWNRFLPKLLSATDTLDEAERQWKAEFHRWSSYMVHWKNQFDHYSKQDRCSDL
UniProt P06276, whole entry, looked up: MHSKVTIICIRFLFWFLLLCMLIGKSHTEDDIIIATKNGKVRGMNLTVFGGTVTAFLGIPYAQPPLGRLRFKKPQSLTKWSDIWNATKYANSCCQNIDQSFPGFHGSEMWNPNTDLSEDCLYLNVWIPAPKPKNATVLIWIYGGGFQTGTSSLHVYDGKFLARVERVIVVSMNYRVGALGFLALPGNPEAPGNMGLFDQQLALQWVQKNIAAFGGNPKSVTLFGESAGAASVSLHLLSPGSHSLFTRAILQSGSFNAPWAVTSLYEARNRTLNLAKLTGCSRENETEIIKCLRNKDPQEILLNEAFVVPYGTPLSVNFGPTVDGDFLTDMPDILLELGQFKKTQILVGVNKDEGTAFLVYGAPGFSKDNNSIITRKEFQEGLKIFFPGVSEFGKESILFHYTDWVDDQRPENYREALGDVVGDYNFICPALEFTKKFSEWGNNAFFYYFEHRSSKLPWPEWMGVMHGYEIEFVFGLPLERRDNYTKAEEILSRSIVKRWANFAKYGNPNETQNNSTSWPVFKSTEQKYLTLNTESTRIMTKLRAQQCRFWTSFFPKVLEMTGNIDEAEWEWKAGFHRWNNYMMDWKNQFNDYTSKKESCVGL

target: Acetylcholinesterase (Homo sapiens) (UniProt P22303); assay: Reactivation of tabun-inhibited human recombinant AChE using acetylthiocholine iodide as substrate by Ellman spectrophotometric method relative to control

Structure (SMILES) | %max
NC(=O)c1cc[n+](C/C=C/C[n+]2ccc(/C=N/O)c(Cl)c2)cc1 | 80%

target: Acetylcholinesterase (Homo sapiens) (UniProt P22303); assay: Reactivation of tabun-inhibited human erythrocytic AChE using acetylthiocholine iodide as substrate by Ellman spectrophotometric method relative to control

Structure (SMILES) | %max
NC(=O)c1cc[n+](CCCC[n+]2ccc(/C=N/O)cc2)cc1 | 100%
NC(=O)c1cc[n+](C/C=C/C[n+]2ccc(/C=N/O)cc2)cc1 | 90%
C[n+]1ccccc1C=NO | 90%

target: Acetylcholinesterase (Homo sapiens) (UniProt P22303); assay: Reactivation of sarin-inhibited human recombinant AChE using acetylthiocholine iodide as substrate assessed as time required for maximal percentage of reactivation by Ellman spectrophotometric method

Structure (SMILES) | TIME
NC(=O)c1cc[n+](CCCC[n+]2ccc(/C=N/O)cc2)cc1 | 5 h
NC(=O)c1cc[n+](C/C=C/C[n+]2ccc(/C=N/O)cc2)cc1 | 5 h
C[n+]1ccccc1C=NO | 0.667 h
NC(=O)c1cc[n+](C/C=C/C[n+]2ccc(/C=N/O)c(Cl)c2)cc1 | 1 h

target: Acetylcholinesterase (Homo sapiens) (UniProt P22303); assay: Reactivation of VX-inhibited human recombinant AChE at 1 mM using acetylthiocholine iodide as substrate by Ellman spectrophotometric method relative to control

Structure (SMILES) | %max
NC(=O)c1cc[n+](CCCC[n+]2ccc(/C=N/O)cc2)cc1 | 100%
NC(=O)c1cc[n+](C/C=C/C[n+]2ccc(/C=N/O)cc2)cc1 | 100%
C[n+]1ccccc1C=NO | 80%

target: Acetylcholinesterase (Homo sapiens) (UniProt P22303); assay: Reactivation of VX-inhibited human recombinant AChE at 500 uM using acetylthiocholine iodide as substrate by Ellman spectrophotometric method relative to control

Structure (SMILES) | %max
NC(=O)c1cc[n+](C/C=C/C[n+]2ccc(/C=N/O)c(Cl)c2)cc1 | 100%

target: T1, Cholinesterases; ACHE & BCHE (Homo sapiens) (UniProt P06276+P22303); assay: Selectivity ratio of Ki for human plasma BChE to Ki for human erythrocytic AChE

Structure (SMILES) | Ratio Ki
NC(=O)c1cc[n+](CCCC[n+]2ccc(/C=N/O)cc2)cc1 | 3.8
NC(=O)c1cc[n+](C/C=C/C[n+]2ccc(/C=N/O)cc2)cc1 | 10.1

target: Acetylcholinesterase (Homo sapiens) (UniProt P22303); assay: Reactivation of cyclosarin-inhibited human recombinant AChE using acetylthiocholine iodide as substrate assessed as maximal first-order reactivation rate by Ellman spectrophotometric method

Structure (SMILES) | K
NC(=O)c1cc[n+](CCCC[n+]2ccc(/C=N/O)cc2)cc1 | 0.07 min⁻¹
NC(=O)c1cc[n+](C/C=C/C[n+]2ccc(/C=N/O)cc2)cc1 | 0.08 min⁻¹
C[n+]1ccccc1C=NO | 0.05 min⁻¹
NC(=O)c1cc[n+](C/C=C/C[n+]2ccc(/C=N/O)c(Cl)c2)cc1 | 0.04 min⁻¹

target: T1, Cholinesterases; ACHE & BCHE (Homo sapiens); assay: Selectivity ratio of Ki for human plasma BChE to Ki for recombinant human AChE

Structure (SMILES) | Ratio Ki
C[n+]1ccccc1C=NO | 2.2
NC(=O)c1cc[n+](C/C=C/C[n+]2ccc(/C=N/O)c(Cl)c2)cc1 | 12.3

target: Acetylcholinesterase (Homo sapiens) (UniProt P22303); assay: Reactivation of VX-inhibited human recombinant AChE using acetylthiocholine iodide as substrate assessed as overall second-order reactivation rate by Ellman spectrophotometric method

Structure (SMILES) | K
NC(=O)c1cc[n+](CCCC[n+]2ccc(/C=N/O)cc2)cc1 | 12.9 M⁻¹ s⁻¹
NC(=O)c1cc[n+](C/C=C/C[n+]2ccc(/C=N/O)cc2)cc1 | 25.5 M⁻¹ s⁻¹
C[n+]1ccccc1C=NO | 33.3 M⁻¹ s⁻¹
NC(=O)c1cc[n+](C/C=C/C[n+]2ccc(/C=N/O)c(Cl)c2)cc1 | 7.33 M⁻¹ s⁻¹

target: Acetylcholinesterase (Homo sapiens) (UniProt P22303); assay: Reactivation of cyclosarin-inhibited human recombinant AChE using acetylthiocholine iodide as substrate by Ellman spectrophotometric method relative to control

Structure (SMILES) | %max
NC(=O)c1cc[n+](CCCC[n+]2ccc(/C=N/O)cc2)cc1 | 100%
NC(=O)c1cc[n+](C/C=C/C[n+]2ccc(/C=N/O)cc2)cc1 | 100%
C[n+]1ccccc1C=NO | 100%
NC(=O)c1cc[n+](C/C=C/C[n+]2ccc(/C=N/O)c(Cl)c2)cc1 | 100%

target: Acetylcholinesterase (Homo sapiens) (UniProt P22303); assay: Reactivation of sarin-inhibited human recombinant AChE using acetylthiocholine iodide as substrate by Ellman spectrophotometric method relative to control

Structure (SMILES) | %max
NC(=O)c1cc[n+](CCCC[n+]2ccc(/C=N/O)cc2)cc1 | 100%
NC(=O)c1cc[n+](C/C=C/C[n+]2ccc(/C=N/O)cc2)cc1 | 100%
C[n+]1ccccc1C=NO | 85%
NC(=O)c1cc[n+](C/C=C/C[n+]2ccc(/C=N/O)c(Cl)c2)cc1 | 80%

target: Acetylcholinesterase (Homo sapiens) (UniProt P22303); assay: Reactivation of tabun-inhibited human recombinant AChE using acetylthiocholine iodide as substrate assessed as maximal first-order reactivation rate by Ellman spectrophotometric method

Structure (SMILES) | K
NC(=O)c1cc[n+](C/C=C/C[n+]2ccc(/C=N/O)c(Cl)c2)cc1 | 0.021 min⁻¹

target: Acetylcholinesterase (Homo sapiens) (UniProt P22303); assay: Reactivation of VX-inhibited human recombinant AChE using acetylthiocholine iodide as substrate assessed as time required for maximal percentage of reactivation at 500 uM by Ellman spectrophotometric method

Structure (SMILES) | TIME
NC(=O)c1cc[n+](C/C=C/C[n+]2ccc(/C=N/O)c(Cl)c2)cc1 | 1 h

target: Acetylcholinesterase (Homo sapiens) (UniProt P22303); assay: Reactivation of tabun-inhibited human erythrocytic AChE using acetylthiocholine iodide as substrate assessed as overall second-order reactivation rate by Ellman spectrophotometric method

Structure (SMILES) | K
NC(=O)c1cc[n+](CCCC[n+]2ccc(/C=N/O)cc2)cc1 | 11.2 M⁻¹ s⁻¹
NC(=O)c1cc[n+](C/C=C/C[n+]2ccc(/C=N/O)cc2)cc1 | 30 M⁻¹ s⁻¹
C[n+]1ccccc1C=NO | 0.267 M⁻¹ s⁻¹

target: Acetylcholinesterase (Homo sapiens) (UniProt P22303); assay: Reactivation of cyclosarin-inhibited human recombinant AChE using acetylthiocholine iodide as substrate assessed as time required for maximal percentage of reactivation by Ellman spectrophotometric method

Structure (SMILES) | TIME
NC(=O)c1cc[n+](CCCC[n+]2ccc(/C=N/O)cc2)cc1 | 4 h
NC(=O)c1cc[n+](C/C=C/C[n+]2ccc(/C=N/O)cc2)cc1 | 4 h
C[n+]1ccccc1C=NO | 2 h
NC(=O)c1cc[n+](C/C=C/C[n+]2ccc(/C=N/O)c(Cl)c2)cc1 | 2 h

target: Acetylcholinesterase (Homo sapiens) (UniProt P22303); assay: Reactivation of VX-inhibited human recombinant AChE using acetylthiocholine iodide as substrate assessed as time required for maximal percentage of reactivation at 1 mM by Ellman spectrophotometric method

Structure (SMILES) | TIME
NC(=O)c1cc[n+](CCCC[n+]2ccc(/C=N/O)cc2)cc1 | 2 h
NC(=O)c1cc[n+](C/C=C/C[n+]2ccc(/C=N/O)cc2)cc1 | 2 h
C[n+]1ccccc1C=NO | 0.5 h

target: Acetylcholinesterase (Homo sapiens) (UniProt P22303); assay: Reactivation of tabun-inhibited human recombinant AChE using acetylthiocholine iodide as substrate assessed as overall second-order reactivation rate by Ellman spectrophotometric method

Structure (SMILES) | K
NC(=O)c1cc[n+](C/C=C/C[n+]2ccc(/C=N/O)c(Cl)c2)cc1 | 9.33 M⁻¹ s⁻¹

target: Acetylcholinesterase (Homo sapiens) (UniProt P22303); assay: Reactivation of tabun-inhibited human erythrocytic AChE using acetylthiocholine iodide as substrate assessed as maximal first-order reactivation rate by Ellman spectrophotometric method

Structure (SMILES) | K
NC(=O)c1cc[n+](CCCC[n+]2ccc(/C=N/O)cc2)cc1 | 0.074 min⁻¹
NC(=O)c1cc[n+](C/C=C/C[n+]2ccc(/C=N/O)cc2)cc1 | 0.13 min⁻¹
C[n+]1ccccc1C=NO | 0.009 min⁻¹

target: Acetylcholinesterase (Homo sapiens) (UniProt P22303); assay: Reactivation of tabun-inhibited human erythrocytic AChE using acetylthiocholine iodide as substrate assessed as time required for maximal percentage of reactivation by Ellman spectrophotometric method

Structure (SMILES) | TIME
NC(=O)c1cc[n+](CCCC[n+]2ccc(/C=N/O)cc2)cc1 | 0.5 h
NC(=O)c1cc[n+](C/C=C/C[n+]2ccc(/C=N/O)cc2)cc1 | 0.3 h
C[n+]1ccccc1C=NO | 12 h

target: Acetylcholinesterase (Homo sapiens) (UniProt P22303); assay: Reactivation of cyclosarin-inhibited human recombinant AChE using acetylthiocholine iodide as substrate assessed as overall second-order reactivation rate by Ellman spectrophotometric method

Structure (SMILES) | K
NC(=O)c1cc[n+](CCCC[n+]2ccc(/C=N/O)cc2)cc1 | 0.717 M⁻¹ s⁻¹
NC(=O)c1cc[n+](C/C=C/C[n+]2ccc(/C=N/O)cc2)cc1 | 1.83 M⁻¹ s⁻¹
C[n+]1ccccc1C=NO | 0.717 M⁻¹ s⁻¹
NC(=O)c1cc[n+](C/C=C/C[n+]2ccc(/C=N/O)c(Cl)c2)cc1 | 4 M⁻¹ s⁻¹

target: Acetylcholinesterase (Homo sapiens) (UniProt P22303); assay: Reactivation of sarin-inhibited human recombinant AChE using acetylthiocholine iodide as substrate assessed as maximal first-order reactivation rate by Ellman spectrophotometric method

Structure (SMILES) | K
NC(=O)c1cc[n+](CCCC[n+]2ccc(/C=N/O)cc2)cc1 | 1.2 min⁻¹
NC(=O)c1cc[n+](C/C=C/C[n+]2ccc(/C=N/O)cc2)cc1 | 1.5 min⁻¹
C[n+]1ccccc1C=NO | 0.16 min⁻¹
NC(=O)c1cc[n+](C/C=C/C[n+]2ccc(/C=N/O)c(Cl)c2)cc1 | 0.35 min⁻¹

target: Acetylcholinesterase (Homo sapiens) (UniProt P22303); assay: Reactivation of VX-inhibited human recombinant AChE using acetylthiocholine iodide as substrate assessed as dissociation constant of conjugated enzyme-oxime complex by Ellman spectrophotometric method

Structure (SMILES) | K
NC(=O)c1cc[n+](CCCC[n+]2ccc(/C=N/O)cc2)cc1 | 1130 µM
NC(=O)c1cc[n+](C/C=C/C[n+]2ccc(/C=N/O)cc2)cc1 | 290 µM
C[n+]1ccccc1C=NO | 58 µM
NC(=O)c1cc[n+](C/C=C/C[n+]2ccc(/C=N/O)c(Cl)c2)cc1 | 320 µM

target: Acetylcholinesterase (Homo sapiens) (UniProt P22303); assay: Reactivation of sarin-inhibited human recombinant AChE using acetylthiocholine iodide as substrate assessed as dissociation constant of conjugated enzyme-oxime complex by Ellman spectrophotometric method

Structure (SMILES) | K
NC(=O)c1cc[n+](CCCC[n+]2ccc(/C=N/O)cc2)cc1 | 510 µM
NC(=O)c1cc[n+](C/C=C/C[n+]2ccc(/C=N/O)cc2)cc1 | 650 µM
C[n+]1ccccc1C=NO | 190 µM
NC(=O)c1cc[n+](C/C=C/C[n+]2ccc(/C=N/O)c(Cl)c2)cc1 | 840 µM

target: Acetylcholinesterase (Homo sapiens) (UniProt P22303); assay: Reactivation of tabun-inhibited human recombinant AChE using acetylthiocholine iodide as substrate assessed as dissociation constant of conjugated enzyme-oxime complex by Ellman spectrophotometric method

Structure (SMILES) | K
NC(=O)c1cc[n+](C/C=C/C[n+]2ccc(/C=N/O)c(Cl)c2)cc1 | 40 µM

target: Acetylcholinesterase (Homo sapiens) (UniProt P22303); assay: Reactivation of tabun-inhibited human recombinant AChE using acetylthiocholine iodide as substrate assessed as time required for maximal percentage of reactivation by Ellman spectrophotometric method

Structure (SMILES) | TIME
NC(=O)c1cc[n+](C/C=C/C[n+]2ccc(/C=N/O)c(Cl)c2)cc1 | 3.5 h

target: Acetylcholinesterase (Homo sapiens) (UniProt P22303); assay: Reactivation of sarin-inhibited human recombinant AChE using acetylthiocholine iodide as substrate assessed as overall second-order reactivation rate by Ellman spectrophotometric method

Structure (SMILES) | K
NC(=O)c1cc[n+](CCCC[n+]2ccc(/C=N/O)cc2)cc1 | 39 M⁻¹ s⁻¹
NC(=O)c1cc[n+](C/C=C/C[n+]2ccc(/C=N/O)cc2)cc1 | 37.5 M⁻¹ s⁻¹
C[n+]1ccccc1C=NO | 14.2 M⁻¹ s⁻¹
NC(=O)c1cc[n+](C/C=C/C[n+]2ccc(/C=N/O)c(Cl)c2)cc1 | 7 M⁻¹ s⁻¹

target: Acetylcholinesterase (Homo sapiens) (UniProt P22303); assay: Reactivation of cyclosarin-inhibited human recombinant AChE using acetylthiocholine iodide as substrate assessed as dissociation constant of conjugated enzyme-oxime complex by Ellman spectrophotometric method

Structure (SMILES) | K
NC(=O)c1cc[n+](CCCC[n+]2ccc(/C=N/O)cc2)cc1 | 1740 µM
NC(=O)c1cc[n+](C/C=C/C[n+]2ccc(/C=N/O)cc2)cc1 | 740 µM
C[n+]1ccccc1C=NO | 1180 µM
NC(=O)c1cc[n+](C/C=C/C[n+]2ccc(/C=N/O)c(Cl)c2)cc1 | 160 µM

target: Acetylcholinesterase (Homo sapiens) (UniProt P22303); assay: Reactivation of VX-inhibited human recombinant AChE using acetylthiocholine iodide as substrate assessed as maximal first-order reactivation rate by Ellman spectrophotometric method

Structure (SMILES) | K
NC(=O)c1cc[n+](CCCC[n+]2ccc(/C=N/O)cc2)cc1 | 0.9 min⁻¹
NC(=O)c1cc[n+](C/C=C/C[n+]2ccc(/C=N/O)cc2)cc1 | 0.5 min⁻¹
C[n+]1ccccc1C=NO | 0.12 min⁻¹
NC(=O)c1cc[n+](C/C=C/C[n+]2ccc(/C=N/O)c(Cl)c2)cc1 | 0.14 min⁻¹

target: Acetylcholinesterase (Homo sapiens) (UniProt P22303); assay: Reactivation of tabun-inhibited human erythrocytic AChE using acetylthiocholine iodide as substrate assessed as dissociation constant of conjugated enzyme-oxime complex by Ellman spectrophotometric method

Structure (SMILES) | K
NC(=O)c1cc[n+](CCCC[n+]2ccc(/C=N/O)cc2)cc1 | 110 µM
NC(=O)c1cc[n+](C/C=C/C[n+]2ccc(/C=N/O)cc2)cc1 | 70 µM
C[n+]1ccccc1C=NO | 570 µM
